This assay deals with human platelets. Kind of assay: U46619-induced platelet aggregation in vitro. Format: cell-based. As to the method: Platelets are prominent components of the thrombi.
Compounds were incubated at 37° C. for 2 min before adding U46619, an aggregating agent, TxA2 analog. Aggregation was followed for 5 min and the maximal amplitude (cm) was measured. DMSO (0.05%) was used as vehicle. Compounds were tested at concentrations ranging from 50 to 200 μM.

Like-named read-outs stand apart in the source and are kept apart here.

One may read the IC50 as the concentration that inhibits the measured activity by half.

For `CC[C@H](C)C(=O)O[C@H]1C[C@H](O)C=C2C=C[C@H](C)[C@H](CC[C@@H](O)C[C@@H](O)CC(=O)O)[C@H]21` [Pravastatin, pravastatin, reference compound], the IC50 is greater than 200 µM (read-out: Platelet aggregation (GFP) IC50) and greater than 200 µM (read-out: Platelet aggregation (PRP) IC50).

For the origin of these results see US7462716B2, “Statin derivatives” (Nicox S.A., priority 2003, dated 2008).
